Measurements taken from US9433687B2, “Anti-Notch3 antibodies and antibody-drug conjugates” (Pfizer Inc., priority 2012, dated 2016).

Assays:
HCC2429 (lung cancer) = experiment: In vitro cytotoxicity (MTS), HCC2429; type: cell-based, human; settings: Table 14; two individual repeats; LP = lacked potency
Method: The effects of anti-Notch3 ADCs were assessed on 1) cell lines endogenously expressing Notch3 protein: HCC2429 (lung cancer), OVCAR3 (ovarian cancer) and MDA-MB-468 (breast cancer), 2) cell lines engineered to over-express full length human Notch3 protein: MDA-MB-468/hNotch3 and U2OS/hNotch3, and 3) a negative control cell line (SW900) using an MTS cellular viability indicator (Promega, Madison, Wis.). These cell lines were cultured with increasing concentrations of anti-Notch3 ADCs comprising rat-human chimeric anti-Notch3 antibodies, ch28 and ch75, and humanized anti-Notch3 antibodies, hu28 and hu75, conjugated to various linker-payload combinations of the present invention. As a specificity control for the anti-Notch3-ADCs, non-targeted control-ADCs (huNeg8.8-ADCs or ch2H6-ADCs) were also tested on the same cell lines. After four days, viability of each culture was assessed. IC50 values were calculated by logistic non-linear regression, model #203 with XL fit v4.2 (IDBS, Guildford, Surry, UK) and presented as ng Ab/mL. […]
This process generated the anti-Notch3 cysteine mutant ADCs: hu28-(L443C)-vc0101 and hu28-(L443C/κK183C)-vc0101. The activity of the anti-Notch3 cysteine mutant ADCs were assessed on cell lines endogenously expressing Notch3 protein: HCC2429 (lung cancer) and OVCAR3 (ovarian cancer) using an MTS cellular viability indicator as described in previous Examples.

[1] = tested on: MDA-MB-468 breast xenografts; experiment: MDA-MB-468 breast xenograft model; type: in vivo, mouse
Method: Similar in vivo experiments were performed with the MDA-MB-468 breast cancer cell line as described above. MDA-MB-468 cells are classified as a triple-negative breast cancer (TNBC) basal-like subtype since they lack expression of the estrogen receptor, progesterone receptor and human epidermal growth factor receptor 2 (HER2) (Lehmann, B D, et al, J Clin Invest. 2011; 121(7):2750-2767). To generate xenografts, female SCID Hairless Outbred (SHO) mice were orthotopically implanted with 10×10^6 MDA-MB-468 cells containing 50% Matrigel (BD Biosciences) in the mammary fat pad. […] FIGS. 13A and 13B show graphs of the data from Table 23 of anti-Notch3 ADCs with vc0101 linker-payloads compared to control huNeg-8.8 ADCs and PBS vehicle. FIGS. 14A and 14B show graphs of the data from Table 24 of the anti-Notch3 ADCs with vc6780 linker-payloads compared to control huNeg-8.8 ADC and PBS vehicle.
The MDA-MB-468 breast cancer model was also dosed intravenously Q4d×4 with PBS vehicle, rat-human chimeric anti-Notch3 ADCs and control huNeg-8.8 ADCs, at a dose of 5 mg/kg as provided in FIGS. 16B and 16C.

B1: hu75-vc6780 (conjugate)
heavy: EVQLVESGGGLVQPGGSLRLSCAASGYAFTDYWMTWVRQAPGKGLEWVAEISPNSGGTNFNEKFKGRFTISVDNAKNSLYLQMNSLRAEDTAVYYCARGEIRYNWFAYWGQGTLVTVSSASTKGPSVFPLAPSSKSTSGGTAALGCLVKDYFPEPVTVSWNSGALTSGVHTFPAVLQSSGLYSLSSVVTVPSSSLGTQTYICNVNHKPSNTKVDKKV[letters of human IgG1 Fc omitted]
light: DIQMTQSPSSLSASVGDRVTITCKASQNVGNNIAWYQQKPGKAPKLLIYYASNRYTGVPSRFSGSGYGTDFTLTISSLQPEDFATYYCQRLYNSPFTFGGGTKVEIKRTVAAPSVFIFPPSDEQLKSGTASVVCLLNNFYPREAKVQWKVDNALQSGNSQESVTEQDSKDSTYSLSSTLTLSKADYEKHKVYACEVTHQGLSSPVTKSFNRGEC
IC50 (ng Ab/mL), HCC2429 (HCC2429 (lung cancer)): 214 ng Ab/mL and 630 ng Ab/mL
tumor volume (mm^3 ± SEM) ([1]; Table 24, 1 mg/kg i.v. Q4d×4, DAY 4): 423 mm^3
tumor volume (mm^3 ± SEM) ([1]; Table 24, 1 mg/kg i.v. Q4d×4, DAY 7): 434 mm^3
tumor volume (mm^3 ± SEM) ([1]; Table 24, 1 mg/kg i.v. Q4d×4, DAY 11): 471 mm^3
tumor volume (mm^3 ± SEM) ([1]; Table 24, 1 mg/kg i.v. Q4d×4, DAY 14): 470 mm^3
tumor volume (mm^3 ± SEM) ([1]; Table 24, 1 mg/kg i.v. Q4d×4, DAY 19): 536 mm^3
tumor volume (mm^3 ± SEM) ([1]; Table 24, 1 mg/kg i.v. Q4d×4, DAY 22): 552 mm^3
tumor volume (mm^3 ± SEM) ([1]; Table 24, 1 mg/kg i.v. Q4d×4, DAY 25): 597 mm^3
tumor volume (mm^3 ± SEM) ([1]; Table 24, 1 mg/kg i.v. Q4d×4, DAY 28): 660 mm^3
tumor volume (mm^3 ± SEM) ([1]; Table 24, 1 mg/kg i.v. Q4d×4, DAY 32): 634 mm^3
tumor volume (mm^3 ± SEM) ([1]; Table 24, 1 mg/kg i.v. Q4d×4, DAY 35): 742 mm^3
tumor volume (mm^3 ± SEM) ([1]; Table 24, 1 mg/kg i.v. Q4d×4, DAY 40): 794 mm^3
tumor volume (mm^3 ± SEM) ([1]; Table 24, 1 mg/kg i.v. Q4d×4, DAY 43): 832 mm^3
tumor volume (mm^3 ± SEM) ([1]; Table 24, 1 mg/kg i.v. Q4d×4, DAY 46): 868 mm^3
tumor volume (mm^3 ± SEM) ([1]; Table 24, 3 mg/kg i.v. Q4d×4, DAY 4): 406 mm^3
tumor volume (mm^3 ± SEM) ([1]; Table 24, 3 mg/kg i.v. Q4d×4, DAY 7): 378 mm^3
tumor volume (mm^3 ± SEM) ([1]; Table 24, 3 mg/kg i.v. Q4d×4, DAY 11): 403 mm^3
tumor volume (mm^3 ± SEM) ([1]; Table 24, 3 mg/kg i.v. Q4d×4, DAY 14): 370 mm^3
tumor volume (mm^3 ± SEM) ([1]; Table 24, 3 mg/kg i.v. Q4d×4, DAY 19): 339 mm^3
tumor volume (mm^3 ± SEM) ([1]; Table 24, 3 mg/kg i.v. Q4d×4, DAY 22): 360 mm^3
tumor volume (mm^3 ± SEM) ([1]; Table 24, 3 mg/kg i.v. Q4d×4, DAY 25): 381 mm^3
tumor volume (mm^3 ± SEM) ([1]; Table 24, 3 mg/kg i.v. Q4d×4, DAY 28): 443 mm^3
tumor volume (mm^3 ± SEM) ([1]; Table 24, 3 mg/kg i.v. Q4d×4, DAY 32): 437 mm^3
tumor volume (mm^3 ± SEM) ([1]; Table 24, 3 mg/kg i.v. Q4d×4, DAY 35): 495 mm^3
tumor volume (mm^3 ± SEM) ([1]; Table 24, 3 mg/kg i.v. Q4d×4, DAY 40): 535 mm^3
tumor volume (mm^3 ± SEM) ([1]; Table 24, 3 mg/kg i.v. Q4d×4, DAY 43): 619 mm^3
tumor volume (mm^3 ± SEM) ([1]; Table 24, 3 mg/kg i.v. Q4d×4, DAY 46): 636 mm^3
tumor volume (mm^3 ± SEM) ([1]; Table 24, 10 mg/kg i.v. Q4d×4, DAY 4): 418 mm^3
tumor volume (mm^3 ± SEM) ([1]; Table 24, 10 mg/kg i.v. Q4d×4, DAY 7): 370 mm^3
tumor volume (mm^3 ± SEM) ([1]; Table 24, 10 mg/kg i.v. Q4d×4, DAY 11): 302 mm^3
tumor volume (mm^3 ± SEM) ([1]; Table 24, 10 mg/kg i.v. Q4d×4, DAY 14): 228 mm^3
tumor volume (mm^3 ± SEM) ([1]; Table 24, 10 mg/kg i.v. Q4d×4, DAY 19): 112 mm^3
tumor volume (mm^3 ± SEM) ([1]; Table 24, 10 mg/kg i.v. Q4d×4, DAY 22): 52 mm^3
tumor volume (mm^3 ± SEM) ([1]; Table 24, 10 mg/kg i.v. Q4d×4, DAY 25): 63 mm^3
tumor volume (mm^3 ± SEM) ([1]; Table 24, 10 mg/kg i.v. Q4d×4, DAY 28): 64 mm^3
tumor volume (mm^3 ± SEM) ([1]; Table 24, 10 mg/kg i.v. Q4d×4, DAY 32): 71 mm^3
tumor volume (mm^3 ± SEM) ([1]; Table 24, 10 mg/kg i.v. Q4d×4, DAY 35): 85 mm^3
tumor volume (mm^3 ± SEM) ([1]; Table 24, 10 mg/kg i.v. Q4d×4, DAY 40): 125 mm^3
tumor volume (mm^3 ± SEM) ([1]; Table 24, 10 mg/kg i.v. Q4d×4, DAY 43): 134 mm^3
tumor volume (mm^3 ± SEM) ([1]; Table 24, 10 mg/kg i.v. Q4d×4, DAY 46): 143 mm^3
tumor volume (mm^3 ± SEM) ([1]; Table 24, 10 mg/kg i.v. Q4d×4, DAY 49): 159 mm^3

“And” between values parts separate entries of the source, which are not always exact repeats. Equal entries are not always repeated.
